Results: patent US9175000B2, “Buprenorphine analogs” (dated 2015)

Assays:
[1] = target: T1, recombinant μ opioid receptor (Homo sapiens (Human), UniProt P35372); assay: μ-opioid receptor [35S]GTPγS functional assay, HEK-293 or CHO cell membranes; settings: HEK-293 or CHO cells; relative to DAMGO
[2] = target: T2, recombinant human κ opioid receptor (Homo sapiens (Human), UniProt P41145); assay: κ-opioid receptor [35S]GTPγS functional assay, HEK-293 or CHO cell membranes; settings: HEK-293 or CHO cells; relative to U69,593
[3] = target: T2, recombinant human κ opioid receptor; assay: κ-opioid receptor [35S]GTPγS functional assay, U-2 OS cell membranes; settings: U-2 OS cells; relative to U69,593
[4] = target: T1, recombinant μ opioid receptor; assay: μ-opioid receptor [35S]GTPγS functional assay, U-2 OS cell membranes; settings: U-2 OS cells; relative to DAMGO

SMILES | GTPγS μ Emax [1] [%] | GTPγS κ Emax [2] [%] | GTPγS κ Emax [3] [%] | GTPγS μ Emax [4] [%]
COc1ccc2c3c1O[C@H]1[C@@]4(OC)CC[C@@]5(C[C@@H]4C(N[C@@H](C(N)=O)c4ccccc4)c4ccccc4)[C@@H](C2)N(CC2CC2)CC[C@]315 (some centres unmarked) | 23.67 ± 1.76 | 70.67 ± 3.71 | – | –
COc1ccc2c3c1O[C@H]1[C@@]4(OC)CC[C@@]5(C[C@@H]4[C@](O)(CC(O)CO)c4ccccc4)[C@@H](C2)N(CC2CC2)CC[C@]315 (some centres unmarked) | 41.75 ± 3.12 | 33.67 ± 1.86 | – | –
COc1ccc2c3c1O[C@H]1[C@@]4(OC)CC[C@@]5(C[C@@H]4C(NC(C(=O)O)c4ccccc4)c4ccccc4)[C@@H](C2)N(CC2CC2)CC[C@]315 (some centres unmarked) | 45.33 ± 0.88 | 51.00 ± 3.06 | – | –
COc1ccc2c3c1O[C@H]1[C@@]4(OC)CC[C@@]5(C[C@@H]4C(NC(C)C(=O)O)c4ccccc4)[C@@H](C2)N(CC2CC2)CC[C@]315 (some centres unmarked) | 40.67 ± 2.91 | 43.33 ± 2.33 | 102.00 ± 4.04 | 38.99 ± 4.04
COc1ccc2c3c1O[C@H]1[C@@]4(OC)CC[C@@]5(C[C@@H]4C(NCC(=O)O)c4ccccc4)[C@@H](C2)N(CC2CC2)CC[C@]315 (some centres unmarked) | 83.50 ± 5.25 | 52.25 ± 1.93 | – | –
COc1ccc2c3c1O[C@H]1[C@@]4(OC)CC[C@@]5(C[C@@H]4C(NC(C)C(N)=O)c4ccccc4)[C@@H](C2)N(CC2CC2)CC[C@]315 (some centres unmarked) | 32.75 ± 1.89 | 61.67 ± 6.98 | 102.30 ± 4.37 | 43.70 ± 2.33
COc1ccc2c3c1O[C@H]1[C@@]4(OC)CC[C@@]5(C[C@@H]4C(N[C@H](C(N)=O)c4ccccc4)c4ccccc4)[C@@H](C2)N(CC2CC2)CC[C@]315 (some centres unmarked) | 67.67 ± 1.76 | – | – | –
